The results in this text go back to US20150185215A1, “Cell-Based Assays For Post-Translational Enzyme Activity” (Cell Assay Innovations, Inc., priority 2012, published 2015).

Chains of the proteins cited; added tags and fusions are not shown. Lines headed by an entry give the natural chain unless they say otherwise; changes in a name come on top.
UniProt Q9P1W9: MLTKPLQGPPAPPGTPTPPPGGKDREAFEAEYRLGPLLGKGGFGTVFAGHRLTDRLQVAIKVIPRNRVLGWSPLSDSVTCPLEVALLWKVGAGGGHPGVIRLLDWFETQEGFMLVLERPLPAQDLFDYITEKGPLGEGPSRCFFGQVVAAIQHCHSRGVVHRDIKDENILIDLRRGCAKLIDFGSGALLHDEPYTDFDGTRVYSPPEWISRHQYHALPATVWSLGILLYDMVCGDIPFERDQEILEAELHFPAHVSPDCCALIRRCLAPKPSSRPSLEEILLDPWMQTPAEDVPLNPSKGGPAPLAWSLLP

Molecules are shown by their SMILES.

The experiment addresses Pim-2 (Homo sapiens, UniProt Q9P1W9). Briefly: Pim-2 Ser/Thr kinase BAD-FLAG transphosphorylation ELISA in transiently transfected HEK293F cells. In kind it is cell-based. The settings on record: HEK293F cells co-expressing Pim-2 and BAD-FLAG, 2 hours compound treatment, Phospho-BAD (Ser112) detection; read-out: IC50, phosphorylation of BAD. In general terms: In an ELISA, binding on a coated surface is turned into a signal by an enzyme label.

A word on the IC50: it is the concentration needed to halve the response being measured. `CN1CCC(CNc2ccc3ncc(-c4cccc(OC(F)(F)F)c4)n3n2)CC1` [SGI-1776]: the 50% inhibitory concentration (IC50) was about 10 µM.
